# Measurements from US7985736B2, “High throughput screen utilizing newly discovered intramolecular neuronal calcium channel interactions to discover new analgesics” (The John Hopkins University, priority 2004, dated 2011).
# Chains of the proteins cited; added tags and fusions are not shown.
# UniProt P08172, whole entry S286A/T287A/S288A/S290A/T307A/S309A/T310A/S311A: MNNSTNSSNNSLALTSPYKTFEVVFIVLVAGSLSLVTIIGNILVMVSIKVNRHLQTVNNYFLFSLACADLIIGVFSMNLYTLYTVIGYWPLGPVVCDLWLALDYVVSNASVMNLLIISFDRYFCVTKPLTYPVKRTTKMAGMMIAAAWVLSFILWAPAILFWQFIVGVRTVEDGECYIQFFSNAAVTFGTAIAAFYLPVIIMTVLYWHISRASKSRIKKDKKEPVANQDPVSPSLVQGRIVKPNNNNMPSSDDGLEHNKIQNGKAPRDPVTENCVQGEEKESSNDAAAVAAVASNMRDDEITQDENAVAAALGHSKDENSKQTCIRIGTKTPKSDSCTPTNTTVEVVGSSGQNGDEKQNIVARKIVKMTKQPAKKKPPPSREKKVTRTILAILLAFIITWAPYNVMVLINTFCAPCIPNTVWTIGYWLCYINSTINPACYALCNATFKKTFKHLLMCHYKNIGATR
# Biological target: T1, m2R (engineered human m2 muscarinic acetylcholine receptor) (Homo sapiens, UniProt P08172, S286A/S288A/S290A/S309A/S311A/T287A/T307A/T310A)
# T1 construct: expressed in transfected cells; host or cells: HEK293
# Test: Receptor-mediated G protein modulation of N-type channels by carbachol via engineered m2R in HEK293 cells
# Type: cell-based
smiles,measurement,setting,value
C[N+](C)(C)CCOC(N)=O [carbachol],G protein modulation of channels by bath-applied carbachol,channels coexpressed with m2R,rapidly induced marked G protein modulation of channels
same,G/Q depression by carbachol alone,"without NTB peptide, carbachol application for 60 min",produced no G/Q depression
